Assay results taken from PubChem BioAssay (NCI).
This is a selection; strong and weak results do not stand in their true shares.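 Compound tested at a single concentration for 48 hours in 96-well plates; a percent growth value below 10 was scored as active.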 Active and inactive are the calls of the source.

Assays:
Test in all cases: NCI-60 one-dose screen, 48 h (100 = growth as untreated, 0 = no growth, -100 = all killed)
Details in all cases: 10 µM
[1] = test system: MOLT-4 leukemia
[2] = test system: SR leukemia
[3] = test system: RPMI-8226 leukemia
[4] = test system: OVCAR-8 ovarian
[5] = test system: OVCAR-5 ovarian
[6] = test system: OVCAR-4 ovarian
[7] = test system: SK-OV-3 ovarian
[8] = test system: IGROV1 ovarian
[9] = test system: OVCAR-3 ovarian
[10] = test system: HS 578T breast
[11] = test system: NCI/ADR-RES ovarian
[12] = test system: T-47D breast
[13] = test system: MDA-MB-435 melanoma
[14] = test system: SW-620 colon
[15] = test system: MCF7 breast
[16] = test system: HCT-116 colon
[17] = test system: HCC-2998 colon
[18] = test system: KM12 colon
[19] = test system: BT-549 breast

SMILES	growth [1]	growth [2]	growth [3]	growth [4]	growth [5]	growth [6]	growth [7]	growth [8]	growth [9]	growth [10]	growth [11]	growth [12]	growth [13]	growth [14]	growth [15]	growth [16]	growth [17]	growth [18]	growth [19]
CN/C(N)=N/[N+](=O)[O-]	inactive: 93.2%	inactive: 95.9%	inactive: 114%	inactive: 106%	inactive: 101%	inactive: 101%	inactive: 110%	inactive: 129%	inactive: 109%	inactive: 114%	inactive: 101%	inactive: 117%	inactive: 115%	inactive: 103%	inactive: 86%	inactive: 100%	inactive: 109%	inactive: 103%	–
CCOP(=O)(CC)OCC	inactive: 96%	inactive: 101%	inactive: 101%	inactive: 98.1%	inactive: 97.8%	inactive: 103%	inactive: 113%	inactive: 113%	inactive: 125%	inactive: 95.4%	inactive: 105%	inactive: 112%	inactive: 101%	inactive: 96.5%	inactive: 89.8%	inactive: 95.3%	inactive: 108%	inactive: 116%	inactive: 105%
CC[N+]([O-])(CC)Cc1ccccc1.O=[N+]([O-])c1cc([N+](=O)[O-])c(S(=O)(=O)O)c([N+](=O)[O-])c1	inactive: 101%	inactive: 94.7%	inactive: 97.3%	inactive: 99.8%	inactive: 98.5%	inactive: 98.9%	inactive: 112%	inactive: 108%	inactive: 102%	inactive: 96.8%	inactive: 110%	inactive: 129%	inactive: 86%	inactive: 100%	inactive: 100%	inactive: 105%	inactive: 102%	inactive: 107%	inactive: 112%
Cc1c([N+](=O)[O-])c(C)c([N+](=O)[O-])c(Nc2c([N+](=O)[O-])c(C)c([N+](=O)[O-])c(C)c2[N+](=O)[O-])c1[N+](=O)[O-]	active: -19%	inactive: 11%	active: -2.7%	active: 6.75%	inactive: 22.3%	active: -1.78%	active: -13.2%	inactive: 23.9%	active: -7.88%	active: 2.18%	active: -6.57%	inactive: 23.8%	active: 1.33%	active: 8.62%	active: 0.861%	active: -57.6%	active: -0.554%	active: 5.28%	active: -14.8%
O=C1N([N+](=O)[O-])CCN1[N+](=O)[O-]	inactive: 108%	inactive: 113%	inactive: 100%	inactive: 100%	inactive: 97.3%	inactive: 103%	inactive: 103%	inactive: 120%	inactive: 112%	inactive: 107%	inactive: 103%	inactive: 121%	inactive: 101%	inactive: 97.6%	inactive: 85.8%	inactive: 105%	inactive: 109%	inactive: 106%	inactive: 114%
CC(C)N1CCN(CCOC(=O)C(O)(c2ccccc2)c2ccccc2)CC1	inactive: 88.2%	inactive: 92.1%	inactive: 98.8%	inactive: 99.9%	inactive: 103%	inactive: 116%	inactive: 85.6%	inactive: 111%	inactive: 103%	inactive: 98.4%	inactive: 104%	inactive: 86.3%	–	inactive: 101%	inactive: 90.9%	inactive: 89.6%	inactive: 95.5%	inactive: 101%	inactive: 93.6%
CCN(CC)CCOC(=O)C(O)(c1cc(C)cc(C)c1)c1cc(C)cc(C)c1	inactive: 100%	inactive: 97.6%	inactive: 98.1%	inactive: 89.2%	inactive: 106%	inactive: 109%	inactive: 93.1%	inactive: 97.6%	inactive: 108%	inactive: 88.4%	inactive: 101%	inactive: 86.9%	inactive: 105%	inactive: 97.3%	inactive: 97.7%	inactive: 97.7%	inactive: 107%	inactive: 103%	inactive: 106%
CC(C)N(CCCl)C(C)C	inactive: 125%	inactive: 120%	inactive: 99.3%	inactive: 98.5%	inactive: 107%	inactive: 113%	inactive: 101%	inactive: 134%	inactive: 111%	inactive: 101%	inactive: 101%	inactive: 109%	inactive: 117%	inactive: 108%	inactive: 103%	inactive: 108%	inactive: 104%	inactive: 114%	inactive: 102%
CCN(CC)CCOC(=O)C(O)(c1ccccc1)c1cc(C)c(C)c(C)c1C (stereo not drawn)	inactive: 81.6%	inactive: 83.8%	inactive: 108%	inactive: 95%	inactive: 91.7%	inactive: 101%	inactive: 87.8%	inactive: 76.3%	inactive: 105%	inactive: 97.7%	inactive: 101%	inactive: 84.9%	inactive: 106%	inactive: 102%	inactive: 88.5%	inactive: 91.9%	inactive: 92.1%	inactive: 104%	inactive: 89.9%
CN(CCO)CCCl.O=[N+]([O-])c1cc([N+](=O)[O-])c(O)c([N+](=O)[O-])c1	inactive: 90.9%	inactive: 78.7%	inactive: 97.5%	inactive: 102%	inactive: 110%	inactive: 105%	inactive: 100%	inactive: 101%	inactive: 105%	inactive: 109%	inactive: 106%	inactive: 95.6%	inactive: 100%	inactive: 88.1%	inactive: 90.8%	inactive: 97.9%	inactive: 98.9%	inactive: 103%	inactive: 97.4%
COc1ccccc1-c1ccccn1.O=[N+]([O-])c1cc([N+](=O)[O-])c(O)c([N+](=O)[O-])c1	inactive: 103%	inactive: 91%	inactive: 100%	inactive: 97.4%	inactive: 108%	inactive: 114%	inactive: 110%	inactive: 103%	inactive: 117%	inactive: 110%	inactive: 111%	inactive: 102%	inactive: 112%	inactive: 104%	inactive: 107%	inactive: 97.3%	inactive: 109%	inactive: 105%	inactive: 97.8%
O=[N+]([O-])N(CCN(CC(Br)([N+](=O)[O-])[N+](=O)[O-])[N+](=O)[O-])CC(Br)([N+](=O)[O-])[N+](=O)[O-]	inactive: 92.7%	inactive: 94.5%	inactive: 101%	inactive: 97.1%	inactive: 101%	inactive: 101%	inactive: 101%	inactive: 114%	inactive: 102%	inactive: 102%	inactive: 98.4%	inactive: 101%	inactive: 105%	inactive: 105%	inactive: 102%	inactive: 95.3%	inactive: 113%	inactive: 116%	inactive: 90.8%
CC[N+](C)(CC)Cc1cc(Cc2ccccc2)ccc1OC(=O)N(C)C	inactive: 97.5%	inactive: 102%	inactive: 102%	inactive: 116%	inactive: 98%	inactive: 108%	inactive: 94.5%	inactive: 96.4%	inactive: 117%	inactive: 122%	inactive: 94.7%	inactive: 91.9%	inactive: 110%	inactive: 106%	inactive: 94.2%	inactive: 103%	inactive: 94.6%	inactive: 111%	inactive: 110%
O=[N+]([O-])c1cc([N+](=O)[O-])c(Oc2ccccc2)c([N+](=O)[O-])c1	inactive: 81.8%	inactive: 91.7%	inactive: 93%	inactive: 98.4%	inactive: 126%	inactive: 109%	inactive: 110%	inactive: 105%	inactive: 118%	inactive: 116%	inactive: 102%	inactive: 109%	inactive: 101%	inactive: 110%	inactive: 98.4%	inactive: 104%	inactive: 109%	inactive: 110%	inactive: 104%
CCN(CC)CCOC(=O)C(O)(c1ccccc1)c1cc(C)cc(C)c1C (stereo not drawn)	inactive: 88.7%	inactive: 92.8%	inactive: 103%	inactive: 103%	inactive: 95.2%	inactive: 110%	inactive: 91%	inactive: 106%	inactive: 101%	inactive: 110%	inactive: 101%	inactive: 98.4%	inactive: 107%	inactive: 109%	inactive: 92.9%	inactive: 104%	inactive: 114%	inactive: 115%	inactive: 123%
